High-throughput results from PubChem.
Nrf2 activator: Nrf2 pathway activation. 0.31% of 410,000 active. AID 624171. Potency, µM (highest dose often 46.1 µM), for inactives: at the highest dose activation, actives largely listed as activators. AREc32 ARE-luciferase reporter (MCF7-derived line), luminescence, 24 h; note: potency is the fitted concentration of half-maximal effect; % of control where 0% means no effect; nearly all actives have a fitted effect of over 65% in size
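Reporter line AREc32 (ARE-Fluc), seeded overnight in OPTI-MEM with 5% FBS; compound pin-transferred, 24 hr at 37 deg C, 5% CO2; luminescent read-out.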
Nrf2 inh: inhibitors of Nrf2 signaling. Potency, µM (highest dose often 46 µM), for the others: at the top dose activity change, negative = inhibition, hits mostly inhibitors. A549 ARE-Fluc reporter, luciferase luminescence, 18-24 h. 2.1% of 360,000 active; note: potency is the fitted concentration of half-maximal effect; % is set by controls: 0 for no effect and ±100 for the full control effect; nearly all actives have a fitted effect of over 60% in size
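A549 ARE_Fluc cells (5000/well, 5% FBS OPTI-MEM) pre-incubated 2 h, then treated with compounds 18-24 h at 37C/5% CO2 in concentration-response. CellTiter-Fluor viability read first; BugLite luciferase luminescence after 15 min at room temperature gives Nrf2 activity.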
p53 reactivator: restores transcriptional activity of mutant p53 | AID 504706 | Potency, µM (series often up to 92.2 µM), for the others: top-dose activity change, positive = activation, hits mostly activators | 0.063% of 320,000 active | H1299 p53-A138V BP100-luciferase reporter, luminescence, 24 h; note: potency is the fitted concentration of half-maximal effect; % of control where 0% means no effect; nearly all actives have a fitted effect of over 45% in size
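H1299 (p53-null), stable ts p53-A138V + BP100-Luc; 1000 cells/well, Opti-MEM/10% FBS; cpd 4 pt, 1:5; 24 h, 37 deg C, 5% CO2; detection reagent 10 min RT; luminescence.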
A549 tox: counter-screen for Nrf2 inhibitors: cytotoxicity in A549 cells | Potency, µM (doses to about 46 µM), for inactives: top-dose activity change, negative = cytotoxicity, usual class: inhibitors | A549 ARE-Fluc cells, CellTiter-Fluor viability, 18-24 h | 0.16% of 390,000 active | AID 504648; note: potency is the fitted concentration of half-maximal effect; % is set by controls: 0 for no effect and ±100 for the full control effect
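Cytotoxicity counterscreen: CellTiter-Fluor fluorescence was measured in A549 ARE_Fluc cells after 18-24 h of compound exposure in a concentration series. The subsequent BugLite luminescent read reports ARE-luciferase activity.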
ClpP mod: qHTS Assay for Activators of ClpP. ATP-dependent Clp protease proteolytic subunit (Bacillus subtilis (strain 168)), P80244. purified B. subtilis ClpP, FRET peptide cleavage, 20 min. Potency, µM (doses to about 57.5 µM), without a hit: top-dose activity change, negative = active. 1.9% of 340,000 active. AID 651965, 2013; active = well fitted falling curve with a large enough effect; inconclusive = small, poorly fitted or top-dose-only effect; inactive = no such curve, though single readings can be large or run the other way; note: potency is the fitted concentration of half-maximal effect; the source files actives as falling curves though it sought activators and does not explain the sign; nearly all actives have a fitted effect of over 65% in size
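Buffer: 100 mM Tris/HCl pH8, 100 mM KCl, 0.05% low protease BSA, 2.5% glycerol, 0.01% Tween-20. ClpP 10 microg/mL final; 20 min RT; delta FRET normalized to ADEP and DMSO controls.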
miR-21 reporter: miR-21 reporter, rising signal; HeLa miR-21 FLuc reporter, luciferase, 48 h; Potency, µM (top dose mostly 38.3 µM), without a hit: at the highest dose reporter change, positive = more light; 340,000 tested, under 10 active; active = well fitted rising curve with a large enough effect; inconclusive = small, poorly fitted or top-dose-only effect; inactive = no such curve, though single readings can be large or run the other way;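 further: % of control where 0% means no effect; miR-21 action dims this reporter so a rising signal means less miR-21 action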
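Using DMEM plus 10% FBS, HeLa miR-21-FLuc cells are incubated with test compounds (final up to about 40uM) for 48 hours; firefly luciferase signal is then imaged following reagent-mediated lysis.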
* hit, by the source's call; ? = inconclusive; . = no result. In the library only some 3.7% were active in any assay of this set; here they are far more common. Unless noted, calls come from the whole dose curve; as a rule, active = well fitted curve in the direction sought with a large enough effect; inconclusive = small, poorly fitted or top-dose-only effect, or another doubt; inactive = no such curve, though single readings can be large; an effect the other way counts as inactive or inconclusive.

Chains of the proteins cited; added tags and fusions are not shown.
ATP-dependent Clp protease proteolytic subunit (Bacillus subtilis (strain 168)), P80244, UniProt P80244, whole entry, looked up: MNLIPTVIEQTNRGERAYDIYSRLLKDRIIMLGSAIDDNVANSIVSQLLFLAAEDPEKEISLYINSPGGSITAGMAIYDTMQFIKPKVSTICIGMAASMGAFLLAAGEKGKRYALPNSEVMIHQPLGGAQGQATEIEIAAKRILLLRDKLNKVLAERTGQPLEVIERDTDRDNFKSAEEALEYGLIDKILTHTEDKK

#	Structure	Nrf2 activator	Nrf2 inh	p53 reactivator
1	O=C(C1=C[C@@H](c2csc3ccccc23)C[C@@H](OCc2ccc(CO)cc2)O1)N1CCN(Cc2ccc3c(c2)OCO3)CC1	8%	?	-6%
2	CN1C2CCC1/C(=C\c1ccccc1)C(=O)/C2=C\c1ccccc1	?	26µM*	11%
3	O=C1/C(=C/c2ccccc2)CCC1C1CCCC1 (stereo not given)	3%	?	?
4	COc1ccccc1N(/N=C1\Sc2ccccc2C1=O)C(C)=O	14µM*	-1%	?
5	COc1ccc(N(/N=C2\Sc3ccccc3C2=O)C(C)=O)cc1	2%	11%	26%
6	Cc1ccc(OCc2ccc(-c3nc(C#N)c(NCc4ccccc4Cl)o3)o2)cc1	0%	?	.
7	CCCCNc1oc(-c2ccc(COc3ccc(OC)cc3)o2)nc1C#N	4%	-23%	.
8	COc1ccc(CNc2oc(-c3ccc(COc4ccc(OC)cc4)o3)nc2C#N)cc1	4%	?	.
9	COc1ccc(OCc2ccc(-c3nc(C#N)c(NCc4ccc(F)cc4)o3)o2)cc1	6%	?	.
10	CCNc1oc(-c2ccc(COc3ccc(Cl)cc3)o2)nc1C#N	0%	?	.

#	A549 tox	ClpP mod	miR-21 reporter
1	-13%	-5%	?
2	?	-1%	-4%
3	3%	-4%	-14%
4	-5%	2%	0%
5	0%	0%	-67%
6	-16%	25µM*	?
7	7%	28µM*	-15%
8	-11%	22µM*	25%
9	-13%	32µM*	7%
10	-10%	-179%	-1%

Remaining list, next part.
#	Structure	Nrf2 activator	Nrf2 inh	p53 reactivator
11	N#Cc1cccc(OC2=NS(=O)(=O)c3ccccc32)c1	.	11%	.
12	COc1cc(NC(=O)C2CCN(c3nc4ccccc4nc3C(F)(F)F)CC2)cc(OC)c1	-1%	-28%	.
13	COCCCNc1oc(-c2ccc(COc3ccc(Cl)cc3)o2)nc1C#N	5%	23µM*	.
14	COc1ccc(-c2nc(C#N)c(NCCc3ccccc3)o2)cc1	0%	-2%	?
15	COCCNc1oc(-c2ccc(COc3ccc(OC)cc3)o2)nc1C#N	4%	?	.
16	COc1ccc(CCNc2oc(Cc3cccc4ccccc34)nc2C#N)cc1OC	-1%	21µM*	-16%
17	COc1ccc(-c2nc(C#N)c(NCc3ccccc3Cl)o2)cc1	2%	-28%	.
18	Cc1ccc(NS(=O)(=O)c2ccc3c(c2)CCC(=O)N3)cc1Cl	.	-3%	.
19	COc1ccc(C(=O)c2cn(Cc3ccc(F)cc3)c3ccc(C)cc3c2=O)cc1	9%	?	.
20	CCN(CC)S(=O)(=O)c1ccc2c(c1)N(CC(=O)Nc1c(C)cc(C)cc1C)C(=O)CS2	1%	6%	.

#	A549 tox	ClpP mod	miR-21 reporter
11	10%	.	.
12	4%	0%	26%
13	-14%	32µM*	7%
14	-1%	32µM*	-63%
15	1%	?	10%
16	-25%	?	7%
17	-1%	35µM*	-23%
18	17%	.	.
19	?	-3%	?
20	-5%	2%	-1%

Later entries.
#	Structure	Nrf2 activator	Nrf2 inh	p53 reactivator
21	C=CC[n+]1c(-c2ccc(OCC)cc2)csc1NNC(=O)Nc1ccccc1	13%	15µM*	6%
22	Cc1ccc(S(=O)(=O)N2CCN(Cc3ccccc3Cl)CC2)cc1	0%	-20%	.
23	Brc1c(CSc2nc3ccccc3o2)nc2ncccn12	13%	25%	?
24	Clc1c(CSc2nc3ccccc3o2)nc2ccccn12	?	?	?
25	Brc1c(CSc2nncn2-c2ccccc2)nc2ncccn12	0%	2%	13%
26	Brc1c(CSc2nncn2-c2ccccc2)nc2sccn12	6%	.	-3%
27	COc1ccc(C(=O)NCCCNC(=O)c2cccnc2)cc1OC	0%	10µM*	-2%
28	CC(C)(C)c1ccc(C(=O)NCCCNC(=O)c2cccnc2)cc1	-1%	8.2µM*	6%
29	O=C(NCCCCNC(=O)c1cccnc1)c1cccnc1	0%	-13%	-2%
30	O=C(NCCNC(=O)c1ccc(Br)o1)c1ccc(Br)o1	3%	-9%	-10%

#	A549 tox	ClpP mod	miR-21 reporter
21	-6%	0%	20%
22	8%	-1%	-2%
23	-4%	25µM*	-75%
24	6%	0%	-38%
25	-7%	10µM*	-4%
26	-2%	-1%	-8%
27	1%	.	-4%
28	-3%	.	-17%
29	-16%	0%	-5%
30	0%	-2%	-5%

Continuation:
#	Structure	Nrf2 activator	Nrf2 inh	p53 reactivator
31	O=C(NCCNC(=O)c1ccc(Br)o1)c1cccnc1	0%	-19%	12%
32	CCOC(=O)[C@]12CCCC=C1N(Cc1ccco1)C(=O)[C@H](CC(=O)NCCCOC)C2	0%	.	.
33	CCC(C)OC(=O)/C(C#N)=C\c1ccc(-c2ccccc2Cl)o1 (stereo not given)	20%	-1%	.
34	Cc1oc2ncn(CC(C)C)c(=O)c2c1C(=O)NCCCN(Cc1ccccc1)C(C)C	1%	24%	.
35	CC(C)=CCC/C(C)=C/CC/C(C)=C/CCC1(C)CCc2cc(O)ccc2O1 (stereo not given)	.	.	.
36	Cc1ccc(/C=C2\SC(=S)N(CCCC(=O)Nc3cccnc3)C2=O)cc1	-2%	12µM*	-31%
37	O=C(CCCN1C(=O)/C(=C\c2cccc(Br)c2)SC1=S)Nc1cccnc1	10µM*	?	-2%
38	CCc1ccc(/C=C2\SC(=S)N(CCCC(=O)Nc3ccccn3)C2=O)cc1	-3%	23µM*	-9%
39	COc1ccc(OC)c2c(C)ccnc12	.	.	.
40	Cc1ccc(C(=O)N2CCN(c3cccc(Cl)c3)CC2)cc1-n1c(C)nc2cccnc21	2%	-9%	.

#	A549 tox	ClpP mod	miR-21 reporter
31	1%	25µM*	0%
32	.	-10%	.
33	0%	0%	-21%
34	6%	-2%	-9%
35	.	-2%	.
36	?	2%	27%
37	?	.	-6%
38	-13%	-1%	8%
39	.	1%	.
40	5%	0%	16%

Other records
#	Structure	Nrf2 activator	Nrf2 inh	p53 reactivator
41	COc1ccc(O)c(C(=O)c2cnn(-c3ccc(Cl)cc3)c2)c1	1%	4%	6%
42	COc1ccc(O)c(C(=O)c2cnc3nc4ccccc4n3c2)c1	18%	10%	?
43	O=C(N/N=C/c1ccc2c(c1)OCO2)c1ccc(Br)o1	5%	?	3.2µM*
44	O=S(=O)(c1ccc(C(F)(F)F)cc1)N1CCN(S(=O)(=O)c2ccc3c(c2)OCCO3)CC1	.	-15%	.
45	COc1ccc(C(NC(=O)C2CCN(Cc3ccc(Oc4ccccc4)cc3)CC2)c2ccccc2C)cn1 (stereo not given)	0%	.	.
46	COc1ccc(/C=C/c2nccc3ccccc23)cc1OC	.	.	.
47	Cc1cc(N)ccc1-n1c(C)ccc1C	2%	23%	24%

#	A549 tox	ClpP mod	miR-21 reporter
41	-6%	.	-40%
42	-4%	28µM*	2%
43	5%	-7%	-34%
44	-3%	.	.
45	.	1%	.
46	.	-10%	.
47	0%	32µM*	-5%
